# Assay results from patent US20230108186A1, “NITRIC OXIDE-RELEASING ANTIBACTERIAL COMPOUNDS, FORMULATIONS, AND METHODS PERTAINING THERETO” (published 2023).
# What was measured:
# [1] = Nitric oxide analysis (NOA) release profile measured by chemiluminescence
# [2] = Degradation and NO/HNO release under simulated physiological conditions; settings: for release of NO or HNO: physiological temperatures and pHs
compound,measurement,setting,value
β-cyclodextrin,NO-loading,[1]; MTDD (NCT-19-096) mixed with β-cyclodextrin,0.0 µmol/mg
[O-]/[N+](=N\O)C(/[N+]([O-])=N/O)/[N+]([O-])=N/O,NO released,"[1]; pH 7.4, chemiluminescence",6.7 μmol NO/mg
[O-]/[N+](C/[N+]([O-])=N\O)=N\O,release of NO or HNO,[2],does not release NO or HNO
same,release of NO or HNO,[2]; listed as Methane bis-diazeniumdiolate,does not release NO or NHO
same,degradation,[2]; simulated physiological conditions,does not not degrade to any significant degree
